Results published in patent publication US12383633B1, “Injectable formulations of PARP inhibitors and uses thereof” (ZYMERON CORPORATION, priority 2024, dated 2025).

Experimental: (§1) 2.5 mL solutions of each excipient with each concentration were prepared by serial dilution of the saturated solution. One vial for each excipient experiment was prepared with 2.5 ml water. To each vial, 50 mg olaparib was added, sonicated, vortexed, and shaken at 40° C. for over 20 hr. After agitation at 25° C., the suspensions were filtered to obtain clear solutions. The clear solutions were analyzed using HPLC.
as §1, with “600 mg/mL” for “saturated”, “mL” for “ml”, “hours.” for “hr.”

Solubility Enhancement Factor: 46
olaparib water solubility improvement by excipient: 46 fold
Substance: hydroxypropyl-γ-cyclodextrin [HP-γ-cyclodextrin]
